One substance from patent US20250213711A1, “ANTI-CANAG ANTIBODY CONJUGATE” (IKSUDA THERAPEUTICS LIMITED, priority 2022, published 2025) can be followed below.

The assay relates to NCI-N87 gastric cancer xenograft. The assay is described as follows: In vivo efficacy study in NCI-N87 xenograft model. The arrangement: species or system mice. The settings on record: for TGI [%] at 33 day: day 33. The source says:
The ADC non-binding control was an anti-CD19 ADC (DAR 2.0) composed of the same linker-drug combination as ADC-3.

Bounds are passed on as bounds.

Enhertu: the “time after which tumour regrowth was observed” value (1 mg/kg (53 nmol/kg)) is above 28 days. In addition, the “TGI [%] at 33 day” value runs as follows: (single intravenous dose 0.2 mg/kg) 4%; (single intravenous dose 0.5 mg/kg) 46%.
